Assay results as given in PubChem BioAssay AID504490 (NMMLSC, 2011).
Only a part is listed here, and it is no random draw. Activity calls are given as the source filed them.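 The calls were made as follows: active = inhibition above a set limit, near 3 SD of compounds lacking own fluorescence (cut at about 54% in these data); inactive = the rest.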

system: beta-arrestin 1 C-terminal peptide binding to AP2 beta2-adaptin appendage (human); experiment: blockers of arrestin peptide association with AP2 adaptin – biochemical, GPCR trafficking, flow cytometry, primary screen (AID 504490); settings: FITC-arrestin peptide / GST-AP2 beads, at 10 µM, active compounds read high, AP2 beta2 appendage carries R879A mutation;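 also: plate controls were DMSO wells for no effect and 5 µM unlabelled arrestin peptide for full effect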

Structure (SMILES) | inhibition
COc1ccc(NP(C)(=O)Oc2ccccc2OC)cc1 (configuration not stated) | inactive: 4.94%
O=[N+]([O-])c1ccc(OP2(=O)COCCO2)cc1 (configuration not stated) | inactive: -7.12%
Cc1cc(-c2cccc3ccccc23)c(C)cn1.O=[N+]([O-])c1cc([N+](=O)[O-])c(O)c([N+](=O)[O-])c1 | inactive: 31.9%
O=[N+]([O-])c1cc([N+](=O)[O-])c(NCC2CCS(=O)(=O)C2)c([N+](=O)[O-])c1 (configuration not stated) | inactive: 2.28%
Cc1c(C(c2ccc3c(c2)OCO3)c2c(C)n(C)n(-c3ccccc3)c2=O)c(=O)n(-c2ccccc2)n1C.O=[N+]([O-])c1cc([N+](=O)[O-])c(O)c([N+](=O)[O-])c1 | inactive: -1.45%
CP(=O)(Nc1ccc(SC(F)(F)F)cc1)Oc1ccc(F)cc1 (configuration not stated) | inactive: -4.63%
CCOP(C)(=S)SCC(=O)NC(C)(CC)C(=O)O (configuration not stated) | inactive: 2.94%
CP(=O)(Nc1ccc2c(c1)OCCO2)Oc1ccccc1 (configuration not stated) | inactive: 5.36%
Cc1ccccc1NP(C)(=O)Nc1ccccc1C | inactive: 1.8%
COc1ccc(OP(C)(=O)Nc2ccc(Br)cc2)cc1 (configuration not stated) | inactive: 1.6%
CCN(CC)CC(O)COC(=O)C(O)(c1ccccc1)C1CCCCC1 (configuration not stated) | inactive: 22%
O=C(OCCCN1CCCC1)C(O)(c1ccccc1)C1CCCCC1 (configuration not stated) | inactive: 15.2%
COc1ccccc1OP(C)(=O)Nc1c(C)n(C)n(-c2ccccc2)c1=O (configuration not stated) | inactive: 2.9%
CCc1ccc(OP(C)(=O)Nc2cccnc2)cc1 (configuration not stated) | inactive: -2.65%
CP(=O)(Oc1ccccc1)N1CCOC1=O (configuration not stated) | inactive: -1.36%
CC(C)(C)c1ccc(OP(C)(=O)O)cc1 | inactive: 6.97%
COc1ccccc1OP(C)(=O)Nc1ccccc1Br (configuration not stated) | inactive: -3.55%
CP(=O)(Nc1ccc(Cl)cc1)Oc1ccc(F)cc1 (configuration not stated) | inactive: 7.55%
CN(C)C(=O)c1c([N+](=O)[O-])cc([N+](=O)[O-])cc1[N+](=O)[O-] | inactive: 10.7%

Structure (SMILES) | inhibition
Nc1ccc2c(ccc3cccnc32)n1.O=[N+]([O-])c1cc([N+](=O)[O-])c(O)c([N+](=O)[O-])c1 | inactive: 4.5%
CCOC(=O)c1ccc(NP(C)(=O)Oc2ccc(Cl)cc2)cc1 (configuration not stated) | inactive: 3.29%
CP(=O)(OC12CC3CC(CC(C3)C1)C2)OC12CC3CC(CC(C3)C1)C2 | inactive: -9.06%
Cc1cc(C)cc(OP(C)(=O)Nc2cccc(C(F)(F)F)c2)c1 (configuration not stated) | inactive: 15.3%
O=C1C(O)=C([N+](=O)[O-])C(=O)C(O)=C1[N+](=O)[O-] | inactive: -6.5%
COc1ccccc1OP(C)(=O)Nc1ccc(C)c(C)c1 (configuration not stated) | inactive: 4.04%
COc1ccc(OP(C)(=O)Nc2ccccc2Br)cc1 (configuration not stated) | inactive: -2.19%
CP(=O)(OCCOc1ccccc1)OCCOc1ccccc1 | inactive: 40.7%
CCCCCCCCCCCCCCCC1C[N+](C)(C)CCOP(C)(=O)O1 (configuration not stated) | inactive: 43.1%
CP(=O)(Nc1ccc(Cl)cc1Cl)Oc1ccccc1 (configuration not stated) | inactive: 35.1%
COc1ccccc1OP(C)(=O)Nc1ccc(Br)cc1 (configuration not stated) | inactive: 13.4%
COc1ccc(OP(C)(=O)Nc2ccccn2)cc1 (configuration not stated) | inactive: 12%
CN(C)CCOC(=O)C(O)(c1ccccc1)C1CCCC1 (configuration not stated) | inactive: 2.47%
O=[N+]([O-])c1cc([N+](=O)[O-])c(Nc2ccccn2)c([N+](=O)[O-])c1 | inactive: -3.81%
Cc1c(NP(C)(=O)Oc2ccc(C(C)C)cc2)c(=O)n(-c2ccccc2)n1C (configuration not stated) | inactive: 1.06%
COc1ccccc1OP(C)(=O)Nc1ccc(C)cc1C (configuration not stated) | inactive: 23.4%
CP(=O)(Nc1ccccn1)Oc1ccccc1 (configuration not stated) | inactive: 1.38%
CCc1ccc(OP(C)(=O)O)cc1 | inactive: -1.24%
